Values joined by “and” are separate entries in the source; they are usually repeats but may differ in a detail not shown here. Equal values may be shown once.
What was measured:
PIK3CB = PIK3CB (UniProt P42338); test: Inhibition of PIK3CB Kinase Activity
PIK3CA = PIK3CA (UniProt P42336); test: Inhibition of PIK3CA Kinase Activity; details: concentration not given here

Sequences of proteins named here, by UniProt entry; tags and fusion partners are left off. A change or cut given only in a name is not applied to a line headed by its entry.
UniProt P42338: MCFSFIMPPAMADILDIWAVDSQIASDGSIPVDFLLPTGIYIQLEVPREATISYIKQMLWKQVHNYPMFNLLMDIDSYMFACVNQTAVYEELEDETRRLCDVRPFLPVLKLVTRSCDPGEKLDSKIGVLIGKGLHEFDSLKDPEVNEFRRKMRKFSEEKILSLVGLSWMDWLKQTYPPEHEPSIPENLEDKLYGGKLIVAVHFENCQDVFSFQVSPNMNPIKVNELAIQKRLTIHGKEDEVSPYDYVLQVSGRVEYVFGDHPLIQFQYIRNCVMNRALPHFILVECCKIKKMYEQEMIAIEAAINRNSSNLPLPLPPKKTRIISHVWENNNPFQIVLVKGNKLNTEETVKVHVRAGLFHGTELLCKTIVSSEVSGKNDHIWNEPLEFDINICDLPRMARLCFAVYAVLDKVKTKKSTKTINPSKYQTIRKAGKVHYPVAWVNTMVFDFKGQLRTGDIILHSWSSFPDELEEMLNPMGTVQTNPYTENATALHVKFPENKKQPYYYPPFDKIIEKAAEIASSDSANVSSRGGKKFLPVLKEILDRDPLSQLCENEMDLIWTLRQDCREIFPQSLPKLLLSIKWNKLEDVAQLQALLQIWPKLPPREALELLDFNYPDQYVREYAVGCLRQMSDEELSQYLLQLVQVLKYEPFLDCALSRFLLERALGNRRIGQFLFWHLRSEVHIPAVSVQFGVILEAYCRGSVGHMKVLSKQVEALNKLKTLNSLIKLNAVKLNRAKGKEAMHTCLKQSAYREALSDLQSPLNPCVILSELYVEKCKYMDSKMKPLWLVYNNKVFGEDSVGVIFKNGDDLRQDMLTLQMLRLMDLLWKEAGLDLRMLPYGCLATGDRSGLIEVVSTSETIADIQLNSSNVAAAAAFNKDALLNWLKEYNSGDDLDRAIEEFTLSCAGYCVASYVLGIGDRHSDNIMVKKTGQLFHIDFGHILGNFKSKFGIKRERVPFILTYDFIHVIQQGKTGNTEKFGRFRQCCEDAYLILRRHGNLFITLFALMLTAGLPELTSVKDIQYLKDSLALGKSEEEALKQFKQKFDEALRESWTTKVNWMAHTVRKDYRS
UniProt P42336, whole entry, looked up: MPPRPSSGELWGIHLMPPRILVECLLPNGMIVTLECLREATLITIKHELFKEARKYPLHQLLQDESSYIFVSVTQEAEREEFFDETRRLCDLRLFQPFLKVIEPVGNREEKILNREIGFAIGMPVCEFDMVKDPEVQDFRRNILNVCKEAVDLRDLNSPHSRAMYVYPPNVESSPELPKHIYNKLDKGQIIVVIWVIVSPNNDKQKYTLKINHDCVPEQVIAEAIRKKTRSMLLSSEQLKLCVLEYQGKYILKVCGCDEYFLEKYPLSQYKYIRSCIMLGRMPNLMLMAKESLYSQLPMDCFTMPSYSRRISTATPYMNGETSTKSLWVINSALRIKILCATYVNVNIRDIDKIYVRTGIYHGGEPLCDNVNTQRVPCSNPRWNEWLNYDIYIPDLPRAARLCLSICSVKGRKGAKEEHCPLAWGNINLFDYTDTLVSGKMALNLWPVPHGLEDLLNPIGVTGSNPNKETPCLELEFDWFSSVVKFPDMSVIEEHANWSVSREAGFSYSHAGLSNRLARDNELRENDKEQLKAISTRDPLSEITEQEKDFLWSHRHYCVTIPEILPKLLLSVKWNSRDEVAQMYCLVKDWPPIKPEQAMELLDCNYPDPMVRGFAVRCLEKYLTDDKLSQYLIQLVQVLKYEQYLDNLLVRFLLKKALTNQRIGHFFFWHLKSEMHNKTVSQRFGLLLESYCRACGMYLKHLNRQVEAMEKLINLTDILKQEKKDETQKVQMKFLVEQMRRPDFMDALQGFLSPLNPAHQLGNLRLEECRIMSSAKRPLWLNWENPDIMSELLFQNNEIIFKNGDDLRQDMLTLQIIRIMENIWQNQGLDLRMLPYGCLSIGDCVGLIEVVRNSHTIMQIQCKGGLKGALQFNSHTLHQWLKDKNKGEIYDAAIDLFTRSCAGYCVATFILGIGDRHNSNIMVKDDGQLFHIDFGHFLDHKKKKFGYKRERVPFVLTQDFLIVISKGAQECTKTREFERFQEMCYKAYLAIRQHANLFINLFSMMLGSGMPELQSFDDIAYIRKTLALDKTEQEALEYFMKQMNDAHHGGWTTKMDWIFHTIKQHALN

SMILES | IC50 (PIK3CB) | inhibition (PIK3CA)
O=c1cc(N2CCOCC2)oc2c(-c3ccccc3)cccc12 | 3700 nM and 400 nM | –
Cc1ccccc1-n1c(Cn2cnc3c(N)ncnc32)nc2cccc(C)c2c1=O | – | 5%

— the Kinase Knowledgebase extract (Sharma et al. 2016)
